# Data reported in patent US10222368B2 (priority 2012, dated 2019).
# Amino acid sequences for entries named in this document (tags omitted). Residues count along the entry.
# UniProt A0A8I5ZV49, 1-2647: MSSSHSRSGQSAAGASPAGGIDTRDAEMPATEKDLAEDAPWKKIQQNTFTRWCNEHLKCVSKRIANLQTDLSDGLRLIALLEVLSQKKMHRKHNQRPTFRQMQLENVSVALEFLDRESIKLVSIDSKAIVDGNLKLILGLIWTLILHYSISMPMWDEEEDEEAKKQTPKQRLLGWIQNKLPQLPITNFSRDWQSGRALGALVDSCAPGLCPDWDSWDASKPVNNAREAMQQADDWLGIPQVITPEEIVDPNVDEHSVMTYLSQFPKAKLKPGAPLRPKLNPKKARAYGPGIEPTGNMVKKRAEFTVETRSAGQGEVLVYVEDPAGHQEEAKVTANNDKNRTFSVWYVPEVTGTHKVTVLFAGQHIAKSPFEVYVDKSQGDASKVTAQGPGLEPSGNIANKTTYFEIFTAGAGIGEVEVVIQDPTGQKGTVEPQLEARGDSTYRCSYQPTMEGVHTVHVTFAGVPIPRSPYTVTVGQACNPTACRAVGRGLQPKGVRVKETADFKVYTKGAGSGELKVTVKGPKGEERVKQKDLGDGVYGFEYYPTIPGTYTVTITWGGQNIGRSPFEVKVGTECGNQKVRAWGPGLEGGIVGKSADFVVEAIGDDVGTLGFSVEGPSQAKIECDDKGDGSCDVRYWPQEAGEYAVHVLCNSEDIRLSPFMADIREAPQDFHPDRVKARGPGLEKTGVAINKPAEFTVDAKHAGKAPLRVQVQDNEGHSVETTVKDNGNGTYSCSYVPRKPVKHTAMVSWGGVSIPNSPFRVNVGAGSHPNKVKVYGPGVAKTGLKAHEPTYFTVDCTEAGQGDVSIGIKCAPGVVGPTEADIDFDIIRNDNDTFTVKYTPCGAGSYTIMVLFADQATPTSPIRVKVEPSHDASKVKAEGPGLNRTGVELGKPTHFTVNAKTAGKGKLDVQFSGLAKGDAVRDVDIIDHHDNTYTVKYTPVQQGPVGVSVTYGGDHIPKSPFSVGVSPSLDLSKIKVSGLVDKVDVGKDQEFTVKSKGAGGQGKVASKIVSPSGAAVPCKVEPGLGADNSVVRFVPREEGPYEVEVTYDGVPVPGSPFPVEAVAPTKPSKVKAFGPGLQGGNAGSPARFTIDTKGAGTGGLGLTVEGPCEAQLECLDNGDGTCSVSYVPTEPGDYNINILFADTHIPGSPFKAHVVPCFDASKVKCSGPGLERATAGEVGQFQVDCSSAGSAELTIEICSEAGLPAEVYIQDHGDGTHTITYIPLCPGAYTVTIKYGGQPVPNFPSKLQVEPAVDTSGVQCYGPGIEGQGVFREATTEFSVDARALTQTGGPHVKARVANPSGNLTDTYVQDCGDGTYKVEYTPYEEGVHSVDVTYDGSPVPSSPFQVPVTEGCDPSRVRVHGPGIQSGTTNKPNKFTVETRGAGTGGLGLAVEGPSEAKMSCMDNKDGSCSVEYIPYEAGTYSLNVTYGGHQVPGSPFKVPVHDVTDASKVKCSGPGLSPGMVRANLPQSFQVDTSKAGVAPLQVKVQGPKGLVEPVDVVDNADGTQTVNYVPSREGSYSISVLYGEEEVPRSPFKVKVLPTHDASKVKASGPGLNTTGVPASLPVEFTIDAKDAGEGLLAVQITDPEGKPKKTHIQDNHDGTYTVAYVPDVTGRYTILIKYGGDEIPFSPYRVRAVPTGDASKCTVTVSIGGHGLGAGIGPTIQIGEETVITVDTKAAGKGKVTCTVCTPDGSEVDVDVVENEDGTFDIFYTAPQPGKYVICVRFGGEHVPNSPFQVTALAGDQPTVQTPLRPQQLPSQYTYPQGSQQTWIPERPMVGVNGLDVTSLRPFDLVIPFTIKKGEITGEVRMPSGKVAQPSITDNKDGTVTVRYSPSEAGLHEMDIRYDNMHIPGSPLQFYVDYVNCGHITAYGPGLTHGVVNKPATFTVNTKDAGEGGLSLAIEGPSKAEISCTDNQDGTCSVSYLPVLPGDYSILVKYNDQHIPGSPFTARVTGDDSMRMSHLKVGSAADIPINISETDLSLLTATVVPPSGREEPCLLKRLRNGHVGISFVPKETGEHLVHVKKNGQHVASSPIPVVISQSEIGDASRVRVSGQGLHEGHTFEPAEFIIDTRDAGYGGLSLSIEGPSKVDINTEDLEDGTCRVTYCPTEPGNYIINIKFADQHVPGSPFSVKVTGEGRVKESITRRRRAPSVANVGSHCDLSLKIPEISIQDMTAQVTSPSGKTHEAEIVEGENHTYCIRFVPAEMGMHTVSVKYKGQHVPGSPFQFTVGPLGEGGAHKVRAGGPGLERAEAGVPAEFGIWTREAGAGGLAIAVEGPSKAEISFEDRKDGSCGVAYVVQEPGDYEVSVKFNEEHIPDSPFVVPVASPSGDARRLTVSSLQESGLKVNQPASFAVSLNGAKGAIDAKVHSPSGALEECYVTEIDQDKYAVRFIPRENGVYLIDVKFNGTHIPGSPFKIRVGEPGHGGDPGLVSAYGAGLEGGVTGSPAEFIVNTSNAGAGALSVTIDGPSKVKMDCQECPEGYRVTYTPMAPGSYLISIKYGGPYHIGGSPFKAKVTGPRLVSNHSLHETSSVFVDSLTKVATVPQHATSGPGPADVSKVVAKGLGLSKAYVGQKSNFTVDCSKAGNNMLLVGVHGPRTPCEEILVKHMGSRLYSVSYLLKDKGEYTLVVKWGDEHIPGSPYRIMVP
# UniProt P35372, whole entry, species assumed: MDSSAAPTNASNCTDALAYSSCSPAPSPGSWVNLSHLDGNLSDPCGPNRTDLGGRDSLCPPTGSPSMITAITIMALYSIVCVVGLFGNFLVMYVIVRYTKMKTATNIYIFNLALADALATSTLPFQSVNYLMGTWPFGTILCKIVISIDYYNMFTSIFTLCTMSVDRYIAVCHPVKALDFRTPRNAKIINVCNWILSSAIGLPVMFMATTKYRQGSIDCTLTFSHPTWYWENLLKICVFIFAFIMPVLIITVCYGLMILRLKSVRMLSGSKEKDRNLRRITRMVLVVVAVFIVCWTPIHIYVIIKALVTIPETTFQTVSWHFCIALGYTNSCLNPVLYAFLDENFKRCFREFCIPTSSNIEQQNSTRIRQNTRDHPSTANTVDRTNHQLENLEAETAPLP
# UniProt P41143, whole entry: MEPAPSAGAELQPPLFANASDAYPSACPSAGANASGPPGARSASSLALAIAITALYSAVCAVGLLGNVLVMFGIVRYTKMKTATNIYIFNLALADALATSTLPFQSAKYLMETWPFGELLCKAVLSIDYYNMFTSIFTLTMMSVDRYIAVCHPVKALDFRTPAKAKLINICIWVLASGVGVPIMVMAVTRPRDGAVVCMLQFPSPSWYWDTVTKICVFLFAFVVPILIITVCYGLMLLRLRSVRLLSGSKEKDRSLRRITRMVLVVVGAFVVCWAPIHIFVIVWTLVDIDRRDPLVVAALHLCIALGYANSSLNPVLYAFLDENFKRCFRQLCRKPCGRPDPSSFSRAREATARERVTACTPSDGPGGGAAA
# UniProt P33535, whole entry: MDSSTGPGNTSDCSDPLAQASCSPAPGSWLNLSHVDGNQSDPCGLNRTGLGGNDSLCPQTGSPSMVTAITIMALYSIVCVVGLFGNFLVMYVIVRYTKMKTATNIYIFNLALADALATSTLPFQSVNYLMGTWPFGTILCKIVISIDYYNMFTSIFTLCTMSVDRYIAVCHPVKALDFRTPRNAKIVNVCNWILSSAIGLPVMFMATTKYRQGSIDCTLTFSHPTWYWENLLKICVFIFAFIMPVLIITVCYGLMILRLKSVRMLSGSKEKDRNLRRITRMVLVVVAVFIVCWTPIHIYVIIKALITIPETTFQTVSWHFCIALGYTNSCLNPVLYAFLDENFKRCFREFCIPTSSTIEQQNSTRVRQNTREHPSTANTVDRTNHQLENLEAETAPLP
# Assays:
# α7nAChR-FLNA association = biological target: T1, α7nAChR-FLNA association (Rattus norvegicus, UniProt A0A8I5ZV49); assay: Rat frontal cortical synaptosomes treated with Aβ42, anti-FLNA immunoprecipitation / Western blot; assay type: cell-based; details: 0.1 or 1 nM compound, simultaneously with or 10 min prior to Aβ42
# T1 construct: from tissue; host or cells: rat frontal cortical synaptosomes
# Description: . The α7nAChR-FLNA complexes in the solubilized synaptosomes were immunoprecipitated with immobilized anti-FLNA and the α7nAChR and FLNA levels in the anti-FLNA immunoprecipitates determined by Western blotting (FIG. 14A) and quantified by densitometry for illustrative compounds (FIG. 14B). n=3. […] FIG. 4C illustrates similar results to those of FIGS. 14A and 14B from a separate, but similar study. […] The letter designation “M” that accompanies many of the “C-series” compounds is omitted from FIG. 14, the remaining figures and most discussions of the figures and compounds hereinafter for ease in expression. Structural formulas of the compounds used in this and the other figures are provided hereinafter.
# The complexes in the solubilized synaptosomes, and α7nAChR, TLR4 and FLNA levels in the anti-FLNA immunoprecipitates were determined by Western blotting (FIG. 15A) in which numerals outside of and to the left of the blots are as discussed before. Amounts present in the blots were quantified by densitometry (FIG. 15B). […] Structural formulas of the compounds used in this and the other figures are provided hereinafter.
# MU opioid receptor = MU opioid receptor (Homo sapiens, UniProt P35372); parameters: key: “−” = antagonist; “+” = agonist; P = partial agonist; “NR” = not reported in the published table; details: cited from earlier work
# DELTA opioid receptor = DELTA opioid receptor (Homo sapiens, UniProt P41143); details: cited from earlier work
# mu opiate receptor (MOR) = biological target: T2, mu opiate receptor (MOR) (Rattus norvegicus, UniProt P33535); assay: MOR agonist activity using [35S]GTPγS binding assay in striatal membranes; assay type: biochemical
# T2 construct: from tissue; host or cells: striatal tissue (membrane preparation)
Compound,Effect on Aβ42-induced α7nAChR-FLNA association (in words) (α7nAChR-FLNA association),"Opioid receptor activity and relative potency, MU (MU opioid receptor)",also measured
COc1c2c(cc3c1C(CC(=O)Cc1ccccc1F)[N+](C)(C)CC3)OCO2.[I-] (stereo not drawn) [Compound B0055],reduce α7nAChR-FLNA association,,
O=C1CN(Cc2ccccc2)C2(CCN(C3CCCCC3)CC2)N1 [Compound C0137M],reduce α7nAChR-FLNA association,,
O=C1CN(Cc2ccccc2)C2(CCN(S(=O)(=O)c3cc(Cl)cc(Cl)c3O)CC2)N1 [Compound C0138M],reduce α7nAChR-FLNA association,,
Oc1ccc2c(c1)[C@@]13CCCC[C@@]1(O)[C@@H](C2)N(CC1CCC1)CC3 [Ethyl Ketocyclazcine],,P,"Opioid receptor activity and relative potency, DELTA (DELTA opioid receptor): +"
O=S(=O)(c1ccc(F)cc1)N1CCOC12CCN(CC1CC1)CC2 [F-C0134],,,"MOR agonist activity, [35S]GTPγS binding, FLNA-binding compound as agonist at 0.1 μM (mu opiate receptor (MOR); 0.1 μM compound, Series C-2): 290.6%; MOR agonist activity, [35S]GTPγS binding, 1 μM + BFNA (mu opiate receptor (MOR); 1 μM compound + 1 μM β-FNA (MOR antagonist)): 66.6%; MOR agonist activity, [35S]GTPγS binding, FLNA-binding compound as agonist at 1 μM (mu opiate receptor (MOR); 1 μM compound, Series C-2): 378.9%"
Cyprodime,,− −,
